Test results: US9416103B2, “Use of the aminoalkylindole JWH-073-M4 and related compounds as neutral CB1 receptor antagonists for the treatment of alcoholism, drug abuse, obesity, and obesity-related diseases” (The Board of Trustees of the University of Arkansas, priority 2012, dated 2016)
Marks after values point to notes of the source that are not given here.

How the values were obtained:
CB1Rs [1] = molecular target: T1, CB1Rs (Mus musculus (Mouse), UniProt P47746); experiment: [35S]GTPγS binding assay (G-protein activation) in mouse brain homogenates; type: biochemical
Description: Mouse brain homogenates for in vitro assays were prepared as previously described. Briefly, whole brains were harvested from B6SJL mice, snap-frozen in liquid nitrogen and stored at −80° C. On the day membrane homogenates were to be prepared, brains were thawed on ice, then pooled in a 40 mL Dounce glass homogenizer and suspended in 5 volumes of ice cold homogenization buffer (50 mM HEPES, pH 7.4, 3 mM MgCl2, and 1 mM EGTA). Brains were then subjected to 10 complete strokes with an A pestle, followed by centrifugation at 40,000×g for 10 minutes at +4° C. Resulting supernatants were discarded, and the pellet was resuspended, homogenized and centrifuged similarly twice more, with supernatants being discarded. For the final resuspension and homogenization with a B pestle, ice-cold 50 mM HEPES was used in place of homogenization buffer, and homogenates were aliquoted and stored at −80° C. Protein concentrations of homogenates were determined using the BCA™ Protein Assay (Thermo Scientific, Rockford, Ill.).
[^35S]GTPγS binding was performed as previously described. Briefly, 25 μg of mouse brain homogenates were incubated for 30 minutes at 30° C. with 0.1 nM [^35S]GTPγS, 10 μM GDP, and either cannabinoid+/−antagonist, 10 μM unlabeled GTPγS (non-specific binding) or vehicle (total binding), in triplicate, in a volume of 1 mL of buffer containing 20 mM HEPES, 10 mM MgCl2, 100 mM NaCl, 20 units/L adenosine deaminase, 0.05% BSA and the appropriate DMSO (0.1%) and/or ethanol (<0.2%) vehicle. Assay buffer containing 100 mM KCl, instead of 100 mM NaCl, was used to increase basal G-protein activity in experiments examining inverse agonism. Reactions were terminated by quick vacuum filtration through Whatman GF/B glass fiber filters, followed by five washes with ice-cold buffer (20 mM HEPES, 0.05% BSA). Filters were immediately placed into 7 mL scintillation vials to which 4 mL of ScintiVerse™ BD Cocktail scintillation fluid was added. Bound radioactivity was determined after overnight incubation at room temperature and shaking by liquid scintillation spectrophotometry with an efficiency of 93% (Tri Carb 2100 TR Liquid Scintillation Analyzer, Packard Instrument Company, Meriden, Conn.). Specific binding is expressed as picomoles of [^35S]GTPγS bound per mg of protein.
Curve fitting and statistical analyses for in vitro experiments were performed using GraphPad Prism™ version 5.0b (GraphPad Software Inc., San Diego, Calif.). The Cheng-Prusoff equation [45] was used to convert the experimental IC50 values obtained from competition receptor binding experiments to Ki values, a quantitative measure of receptor affinity. Non-linear regression for one-site competition was used to determine the IC50 for competition receptor binding. […] Data are expressed as mean±SEM. […]

CB1Rs [2] = molecular target: T1, CB1Rs; settings: mouse brain homogenates; values previously reported [39]; read-out: [3H]CP binding Ki; cited from earlier work
[3] = concentration-effect, mouse brain homogenates

CCCCCc1cc(O)c2c(c1)OC(C)(C)[C@@H]1CCC(C)=C[C@@H]21 [Δ^9-THC, Δ^9-tetrahydrocannabinol]
[35S]GTPγS Binding, 1 μM (CB1Rs [1]; 1 μM): 0.17 ± 0.01 pmol/mg
[35S]GTPγS Binding, +O-2050 (1 μM) (CB1Rs [1]; 1 μM cannabinoid (100 nM for CP-55,940) co-incubated with CB1R antagonist O-2050 1 μM): 0.06 ± 0.01 pmol/mg
EC50 (CB1Rs [1]; [3]): 77 ± 29.9 nM
[35S]GTPγS Binding Emax (CB1Rs [1]; [3]): 0.08 ± 0.01^c pmole/mg
Ki (CB1Rs [2]): 15.3 ± 4.5 nM
